pKd: −log10 of the molar value.
Biological target: T1, TANGO2 (Homo sapiens, UniProt Q6ICL3)
T1 construct: labelled with RED-tris-NTA
T1 sequence (Q6ICL3 1-276): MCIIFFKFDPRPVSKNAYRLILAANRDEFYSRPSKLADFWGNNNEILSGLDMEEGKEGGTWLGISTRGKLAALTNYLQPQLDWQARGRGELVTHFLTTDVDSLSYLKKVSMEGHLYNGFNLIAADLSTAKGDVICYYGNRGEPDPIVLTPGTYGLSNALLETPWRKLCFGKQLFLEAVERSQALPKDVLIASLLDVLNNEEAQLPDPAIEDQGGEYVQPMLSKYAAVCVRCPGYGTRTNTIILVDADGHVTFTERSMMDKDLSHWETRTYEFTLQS
Experiment: microscale thermophoresis (MST)
Type: binding

C=CC1=C(C)C2=Cc3c(C=C)c(C)c4[n]3[Fe]([Cl])[n]3c(c(C)c(CCC(=O)O)c3=CC3=NC(=C4)C(C)=C3CCC(=O)O)=CC1=N2 [hemin]
pKd: 4.37
